ChEMBL document CHEMBL5375994, “Advances in Development of Selective Antitumor Inhibitors That Target PARP-1” (J Med Chem, 2023)

Assay: Selectivity index, ratio of IC50 for inhibition of human recombinant PARP-1 to IC50 for inhibition of recombinant mouse PARP-2

**Q.** With `Cn1cccc1/C=C1\C(=O)NC(=O)c2ccccc21` as the compound, how does the Ratio IC50 read?
**A.** 100
